From PubChem
Hits are enriched below; roughly 1.3% of the tested compounds scored in any of these assays.
ALOX12 inh: inhibitors of human 12S-lipoxygenase ALOX12. Potency, µM (doses to about 108 µM), for the others: at the top dose activity change, negative = inhibition, usual class: inhibitors. AID 1671190. 1.1% of 580,000 active. purified 12hLO, xylenol orange hydroperoxide absorbance; further: potency means the concentration at half of the fitted maximal effect; on the % scale 0 is the no-effect control and ±100 the full control effect
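Hydroperoxide product was detected by ferrous iron/xylenol orange as the 573 to 405 nm absorbance ratio. Arachidonic acid at 40 uM (final) was turned over for 30 min at room temperature by 150 nM human 12hLO, pH 7.0 Hepes buffer, after 15 min compound preincubation.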
PTHR1 ag: PTHR1 (human) receptor agonism. Q03431. AID 743266. Potency, µM (top dose mostly 115 µM), without a hit: top-dose activation, hits mostly activators. 0.075% of 410,000 active. HEK293 GP2 PTHR1 cells, GloSensor cAMP luminescence, 1 h; further: potency means the concentration at half of the fitted maximal effect; nearly all actives have a fitted effect of over 55% in size
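HEK-293-derived GP2 cells expressing PTHR1 and a GloSensor cAMP reporter, 3,000/well, plated overnight, given luciferin plus IBMX (each 0.5 mM as added) for 1 h at 37 °C, then compound for 1 h at 37 °C. Luminescence was read after 15 min at room temperature.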
Giardia killer: kills Giardia lamblia; Giardia lamblia trophozoite viability; activity change, % at 7.66 µM, hits read low; 0.15% of 340,000 active; in the data active means activity change below about -80%; inconclusive means between about -30% and that limit;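 further: parasites exposed to compound for two days anaerobically before the ATP read; on the % scale 0 is the no-effect control and ±100 the full control effect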
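Killing of trophozoites was scored by loss of ATP luminescence after a 48 hrs anaerobic exposure to compounds at 37 deg C, using 100 cells per well.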
ERG Ets-DNA blk: inhibitors of human ERG Ets domain-DNA interaction; AID 624246; Potency, µM (titrated, usually from 76.9 µM), inactives show at the top dose FP activity, negative = inhibition, hits mostly inhibitors; fluorescence polarization, His-ERG Ets domain / labelled DNA; 0.028% of 370,000 active; P11308; active means well fitted inhibition curve with a large enough effect in the polarisation, with a control signal flat; inconclusive means small, poorly fitted or top-dose-only effect, or effect the other way, or a change in a side signal; inactive means no such curve, though single readings can be large or run the other way; the % refers to the polarisation;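 further: polarization taken with two DNA probes labelled with fluorescein and Texas red; potency means the concentration at half of the fitted maximal effect; % of control where 0% means no effect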
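His-tagged ERG Ets domain (1 uM in the protein solution; 300mM KCl, 50mM Tris-HCl, 1mM EDTA, 1mM DTT, pH 7.5) received compound, then a probe mix of 5 nM fluorescein-DNA and 100nM Texas-615-DNA. Fluorescence polarization was read for both dyes.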
PINK1 modulator: modulators of PINK1 expression; PINK1 immunofluorescence, high-content cytometry, 24 h; AID 624263; 0.2% of 410,000 active; Potency, µM (doses to about 76.6 µM), without a hit: at the top dose activation (PINK1 increase), hits mostly activators; active means well fitted activation curve with a large enough effect; inconclusive means small, poorly fitted or top-dose-only effect; cell line not stated here; further: potency means the concentration at half of the fitted maximal effect; % of control where 0% means no effect; nearly all actives have a fitted effect of over 65% in size
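Decision-based qHTS: stable cells, 24 h exposure to five compound concentrations, CCCP as control. Fixed cells stained for PINK1 plus nuclear, mitochondrial and cell markers, cytometer read.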
miR-21 reporter: raises the signal of a miR-21 reporter | HeLa miR-21 FLuc reporter, luciferase, 48 h | Potency, µM (highest dose often 38.3 µM), inactives show at the highest dose reporter change, positive = more light | 340,000 tested, under 10 active | AID 2288; active = well fitted rising curve with a large enough effect; inconclusive = small, poorly fitted or top-dose-only effect; inactive = no such curve, though single readings can be large or run the other way;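 note: % of control where 0% means no effect; miR-21 action dims this reporter so a rising signal means less miR-21 action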
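Luminescence from a firefly luciferase reporter carrying a miR-21 binding site downstream, stably expressed under a CMV promoter in HeLa cells that make miR-21 endogenously, reports miRNA modulation after 48 h compound exposure up to approximately 40uM final.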
* marks the source's active call; other numbers are inactive results; i = inactive; u = inconclusive; x = not tested or not shown; [ ] = dose if it differs, or a comment. Unless noted, the call rests on the fitted dose curve; in most records, active means well fitted curve in the direction sought with a large enough effect; inconclusive means small, poorly fitted or top-dose-only effect, or another doubt; inactive means no such curve, though single readings can be large; an effect the other way counts as inactive or inconclusive.

[1] Cc1ccc2nc(N3C(=O)C(O)=C(C(=O)c4ccc(C)o4)C3c3ccc(O)cc3)sc2c1 (stereo not given)
[2] COc1ccc2nc(N3C(=O)C(O)=C(C(=O)c4ccco4)C3c3ccc(C)o3)sc2c1 (stereo not given)
[3] CCCOc1cccc(C2C(C(=O)c3ccc(C)o3)=C(O)C(=O)N2c2nc(C)c(C(C)=O)s2)c1 (stereo not given)
[4] CCOc1ccc2nc(N3C(=O)C(O)=C(C(=O)c4ccco4)C3c3ccco3)sc2c1 (stereo not given)
[5] CCOc1cccc(C2C(C(=O)c3ccc(C)o3)=C(O)C(=O)N2c2nnc(C)s2)c1 (stereo not given)
[6] CCCCCn1c(=O)[nH]c2cc(C(=O)NCc3ccco3)ccc2c1=O

| assay / compound | 1 | 2 | 3 | 4 | 5 | 6 |
| --- | --- | --- | --- | --- | --- | --- |
| PTHR1 ag | -9.9% | -50.2% | -14.8% | -7.0% | i | i |
| miR-21 reporter | x | x | -25.7% | x | x | -0.6% |
| ERG Ets-DNA blk | 11.8% | 9.1% | 14.8% | -7.5% | -5.1% | 0.2% |
| Giardia killer | 2.0 | 29.9 | -1.4 | -5.2 | -9.0 | -15.4 |
| ALOX12 inh | 28.2µM* | u | 1.26µM* | u | u | u |
| PINK1 modulator | 4.5% | -0.6% | 4.7% | -1.2% | 0.0% | 15.2% |

[7] COc1c(C)cc(C(=O)C2CCCN(C(=O)c3cc(C)nc(C)n3)C2)cc1C (stereo not given)
[8] CC1(CCCCc2ccccc2)COc2ccc(C(=O)NCCN3CCOCC3)cc2N1 (stereo not given)
[9] O=c1[nH]cccc1NS(=O)(=O)c1ccccc1Cl
[10] COc1cc(/C=C(/C#N)C(=O)OC(C)C)cc(Cl)c1O
[11] COc1ccc(NC(=O)CCc2nnc3ccc(N4CCC5(CC4)OCCO5)nn23)cc1
[12] Cc1cccc(OC[C@H]2C[C@@H](NCc3cccc4c3OCO4)[C@H](O)[C@@H]2O)n1

| assay / compound | 7 | 8 | 9 | 10 | 11 | 12 |
| --- | --- | --- | --- | --- | --- | --- |
| PTHR1 ag | -6.3% | x | x | x | u | x |
| miR-21 reporter | -1.2% | x | x | x | -0.6% | x |
| ERG Ets-DNA blk | -0.6% | x | x | x | 4.0% | x |
| Giardia killer | 2.9 | x | x | x | 2.8 | x |
| ALOX12 inh | 11.9% | 100µM* | 35.5µM* | 20µM* | 3.8% | 20µM* |
| PINK1 modulator | 0.5% | x | x | x | 2.1% | x |

[13] COC[C@H]1C[C@@H](NCc2ccc(C)o2)[C@H](O)[C@@H]1O
[14] CC(C)OCCCNC(=O)c1cc(C2CC2)nc2onc(C3CCCN3)c12 (stereo not given)
[15] Cc1cc(C(=O)NCCCOC(C)C)c2c(C3CCCN3)noc2n1 (stereo not given)
[16] CC(C)=CC[C@@H](O)C1=CC(=O)c2c(O)ccc(O)c2C1=O
[17] CCOc1cc(=O)n2c(c1C(=O)Nc1ccccc1Cl)CCCC2
[18] CO[C@@H]1CO[C@H]2[C@@H]1OC[C@@H]2NC(=S)Nc1ccc(Cl)cc1

| assay / compound | 13 | 14 | 15 | 16 | 17 | 18 |
| --- | --- | --- | --- | --- | --- | --- |
| PTHR1 ag | x | x | x | x | x | x |
| miR-21 reporter | x | x | x | x | x | x |
| ERG Ets-DNA blk | x | x | x | x | x | x |
| Giardia killer | x | x | x | x | x | x |
| ALOX12 inh | 57.0%[176 µM] | -2.8%[6.33 µM] | 14.1µM* | 2.17µM* | 20.8% | 79.4µM* |
| PINK1 modulator | x | x | x | x | x | x |

2 entries picked at random from those above:
[15] Cc1cc(C(=O)NCCCOC(C)C)c2c(C3CCCN3)noc2n1 (stereo not given)
[10] COc1cc(/C=C(/C#N)C(=O)OC(C)C)cc(Cl)c1O

| assay / compound | 15 | 10 |
| --- | --- | --- |
| PTHR1 ag | x | x |
| miR-21 reporter | x | x |
| ERG Ets-DNA blk | x | x |
| Giardia killer | x | x |
| ALOX12 inh | 14.1µM* | 20µM* |
| PINK1 modulator | x | x |

(cont.)
[19] COc1ccc(NC(=O)O[C@@H]2CO[C@H]3[C@@H]2OC[C@@H]3NC(=S)NC2CCCCC2)cc1
[20] O=C(NCCSc1ccccc1)C1CC2CCC(C1)C21SCCS1 (stereo not given)
[21] CCNC(=S)NCC12CC3CC(CC(C3)C1)C2
[22] O=C(NC1CCCCC1)c1ccc(-c2cn[nH]c2)c2ccoc12
[23] Cc1cc(C)c2nc(NNC(=O)c3ccc(S(=O)(=O)N4CCCCC4)cc3)sc2c1
[24] CCN1CCN(CCCNC(=O)c2cc3c(=O)n(CC)c4ccccc4c3s2)CC1

| assay / compound | 19 | 20 | 21 | 22 | 23 | 24 |
| --- | --- | --- | --- | --- | --- | --- |
| PTHR1 ag | x | x | x | -18.4% | -6.0% | -10.1% |
| miR-21 reporter | x | x | x | x | 20.8% | -27.7% |
| ERG Ets-DNA blk | x | x | x | x | -0.3% | -11.0% |
| Giardia killer | x | x | x | x | -24.7 | x |
| ALOX12 inh | 0.4% | -24.6% | 39.8µM* | -6.5% | 10µM* | -12.5% |
| PINK1 modulator | x | x | x | 1.9% | 4.3% | 1.3% |

One compound at a time (already shown). Screens in order: PTHR1 ag, miR-21 reporter, ERG Ets-DNA blk, Giardia killer, ALOX12 inh, PINK1 modulator
Results for O=C(NC1CCCCC1)c1ccc(-c2cn[nH]c2)c2ccoc12 = -18.4%, x, x, x, -6.5%, 1.9%
Results for CCN1CCN(CCCNC(=O)c2cc3c(=O)n(CC)c4ccccc4c3s2)CC1 = -10.1%, -27.7%, -11.0%, x, -12.5%, 1.3%

Other results follow:
[25] CCCC(=O)Nc1ccc(NC(=O)c2ccco2)c(OC)c1
[26] CC(=O)Nc1cc(-c2ccc(CO)cc2)cn2c(-c3ccc(F)c(Cl)c3)cnc12
[27] CC[n+]1ccc(C[n+]2ccccc2)c2ccccc21
[28] COc1ccccc1-n1cc2c([N+](=O)[O-])cc([N+](=O)[O-])cc2n1
[29] Cn1c(NC(=O)c2cccc(Cn3cc(Cl)cn3)c2)nc2ccccc21
[30] Cc1ccncc1-c1c(C)nn2c1N(Cc1cccc(O)c1)CCC2

| assay / compound | 25 | 26 | 27 | 28 | 29 | 30 |
| --- | --- | --- | --- | --- | --- | --- |
| PTHR1 ag | -4.0%[57.5 µM] | i | i | -11.5% | -0.6%[57.5 µM] | x |
| miR-21 reporter | -57.2% | x | -3.7% | -5.6% | -62.9% | x |
| ERG Ets-DNA blk | 2.3% | x | -3.0% | 18.0% | 4.4% | x |
| Giardia killer | -13.8 | x | -25.4 | -85.3* | -6.9 | x |
| ALOX12 inh | 24.8% | 35.5µM* | u | -9.2% | 6.9% | 31.6µM* |
| PINK1 modulator | 3.55µM* | -0.3% | -1.4% | 6.0% | 11.2µM* | x |

[31] Cc1ccc(C=Nc2ccc(C(C)C)cc2)s1
[32] Cc1ccc(C=Nc2ccc(Nc3ccccc3)cc2)s1
[33] Cc1noc([C@@H]2CN(Cc3ccoc3)C[C@H]2CO)n1
[34] C/C(NC(=O)c1ccccc1F)=C1\C(=O)C[C@@H]2[C@H]1C2(C)C
[35] CCOc1cc(C2C(C(=O)c3ccc(C)o3)=C(O)C(=O)N2CCc2ccccc2)ccc1O (stereo not given)
[36] COc1ccc(C2C(C(=O)c3ccc(C)o3)=C(O)C(=O)N2Cc2cccnc2)cc1OC (stereo not given)

| assay / compound | 31 | 32 | 33 | 34 | 35 | 36 |
| --- | --- | --- | --- | --- | --- | --- |
| PTHR1 ag | x | x | x | -25.1% | -7.9% | i |
| miR-21 reporter | x | x | x | -55.8% | -11.7% | 0.8% |
| ERG Ets-DNA blk | x | x | x | 12.5% | -2.8% | -5.0% |
| Giardia killer | x | x | x | -11.5 | -23.2 | -4.2 |
| ALOX12 inh | 7.2% | 39.8µM* | 8.8% | u | 8.91µM* | 25.1µM* |
| PINK1 modulator | x | x | x | 0.7% | 1.0% | 0.9% |

[37] COc1cc(C2C(C(=O)c3ccc(C)o3)=C(O)C(=O)N2Cc2ccccc2)ccc1O (stereo not given)
[38] CC(NCc1ccccc1O)C12CC3CC(CC(C3)C1)C2 (stereo not given)
[39] COc1cc(CNCc2ccc(C)cc2)cc(OC)c1OC
[40] CCCc1cc(-c2n[nH]c(=S)n2-c2cccc(C)c2)cs1
[41] Cc1cccc(-n2c(-c3csc(C(C)C)c3)n[nH]c2=S)c1
[42] COc1ccc(/C=N/n2cnnc2)cc1Br

| assay / compound | 37 | 38 | 39 | 40 | 41 | 42 |
| --- | --- | --- | --- | --- | --- | --- |
| PTHR1 ag | -5.1% | i | -27.8% | -3.3% | -35.4%[57.5 µM] | i |
| miR-21 reporter | x | 2.3% | 2.7% | -12.5% | -15.6% | -16.4% |
| ERG Ets-DNA blk | 17.3% | -2.3% | 1.1% | 10.1% | -4.9% | u |
| Giardia killer | -22.5 | 3.7 | -13.4 | 8.2 | 4.6 | -13.8 |
| ALOX12 inh | u | -4.2% | u | 44.7µM* | u | -2.9% |
| PINK1 modulator | 3.2% | 19.8% | 0.5% | 1.1% | 0.0%[38.3 µM] | -1.9% |

[43] Cc1ccc(NC(=O)c2cc(N3C(=O)CCC3=O)ccc2N2CCOCC2)cc1
[44] Cc1ccc(NC(=O)c2cc(N3C(=O)C=CC3=O)ccc2N2CCOCC2)cc1Cl
[45] CCN(Cc1ccccc1)C(=O)C(C)Sc1nnc(-c2cccs2)n1C1CC1 (stereo not given)
[46] Cc1csc(NC(=O)CSc2nnc(-c3ccc(S(=O)(=O)N4CCCC4)cc3)o2)n1
[47] COc1ccc(C(=O)CN2CCN(c3ccc(F)cc3)CC2)cc1OC

| assay / compound | 43 | 44 | 45 | 46 | 47 |
| --- | --- | --- | --- | --- | --- |
| PTHR1 ag | i | i | x | -21.4% | -23.5% |
| miR-21 reporter | 0.0% | 29.3% | x | -19.8% | -3.3% |
| ERG Ets-DNA blk | -18.0% | -2.8% | x | -7.8% | -2.8% |
| Giardia killer | -0.5 | -1.3 | x | -17.7 | -29.6 |
| ALOX12 inh | -1.7% | 12.6µM* | -21.6% | 10.4% | 1.1% |
| PINK1 modulator | 2.4% | 5.0% | x | 8.0% | -3.0% |
